Experimental findings from PMC2408963 (PLoS ONE, 2008) are described below.

To fix the notation:
T1: murine TAP1/TAP2 complexes (mouse, UniProt P21958 1-724; P36371 1-702)
T1 construct: also called mouse TAP complexes; murine TAP transporter
T1 sequence (looked up) 1: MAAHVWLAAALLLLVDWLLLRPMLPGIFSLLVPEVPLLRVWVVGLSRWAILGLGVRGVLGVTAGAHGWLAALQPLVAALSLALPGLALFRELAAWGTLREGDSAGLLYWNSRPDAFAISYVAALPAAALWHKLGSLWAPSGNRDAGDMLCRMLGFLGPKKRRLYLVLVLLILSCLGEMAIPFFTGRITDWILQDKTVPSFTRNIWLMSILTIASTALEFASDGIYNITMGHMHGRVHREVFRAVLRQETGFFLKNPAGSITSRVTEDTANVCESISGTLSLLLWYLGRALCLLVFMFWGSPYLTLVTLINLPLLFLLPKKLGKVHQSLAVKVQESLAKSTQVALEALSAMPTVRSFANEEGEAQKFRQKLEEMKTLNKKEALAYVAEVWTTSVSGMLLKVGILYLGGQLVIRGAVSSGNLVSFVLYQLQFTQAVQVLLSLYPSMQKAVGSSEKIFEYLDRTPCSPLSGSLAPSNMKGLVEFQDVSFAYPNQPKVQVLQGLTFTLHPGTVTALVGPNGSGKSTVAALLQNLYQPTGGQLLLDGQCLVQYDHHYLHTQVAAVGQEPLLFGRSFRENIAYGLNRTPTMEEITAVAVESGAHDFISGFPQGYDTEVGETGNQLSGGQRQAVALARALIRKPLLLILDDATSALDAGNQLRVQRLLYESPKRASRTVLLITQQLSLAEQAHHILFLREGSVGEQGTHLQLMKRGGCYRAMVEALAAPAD
T1 sequence (looked up) 2: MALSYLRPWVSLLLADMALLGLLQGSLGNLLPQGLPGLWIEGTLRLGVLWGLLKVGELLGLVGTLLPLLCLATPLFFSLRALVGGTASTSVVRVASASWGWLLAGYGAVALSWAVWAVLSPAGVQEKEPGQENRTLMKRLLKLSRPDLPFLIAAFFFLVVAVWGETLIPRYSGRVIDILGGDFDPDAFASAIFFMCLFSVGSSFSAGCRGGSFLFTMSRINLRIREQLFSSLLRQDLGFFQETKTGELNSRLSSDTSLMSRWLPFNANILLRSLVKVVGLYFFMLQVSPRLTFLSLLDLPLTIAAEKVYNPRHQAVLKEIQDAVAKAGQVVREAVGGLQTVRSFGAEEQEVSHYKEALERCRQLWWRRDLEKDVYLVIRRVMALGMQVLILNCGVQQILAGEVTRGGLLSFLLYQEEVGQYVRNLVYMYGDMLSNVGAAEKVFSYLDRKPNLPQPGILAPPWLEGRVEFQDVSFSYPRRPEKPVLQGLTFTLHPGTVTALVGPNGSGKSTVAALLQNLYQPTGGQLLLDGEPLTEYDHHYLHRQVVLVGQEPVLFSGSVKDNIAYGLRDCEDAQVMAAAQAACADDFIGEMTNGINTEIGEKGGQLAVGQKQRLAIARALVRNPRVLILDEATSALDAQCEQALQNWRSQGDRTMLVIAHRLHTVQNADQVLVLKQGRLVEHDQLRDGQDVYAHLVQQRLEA

The target in this experiment is T1, murine TAP1/TAP2 complexes. Description: fluorescence polarisation. On the technique in general: Fluorescence polarisation rises when a labelled molecule tumbles more slowly, as on binding a larger partner.
As for NLYISDYKM, the “relative IC50” value came to 0.23 ratio.
As for NQSSHKGVG, the figure is above 7000 ratio; as for LLAVCGCIE, above 5000 ratio.
With AAFEFINSL the figure was 0.11 ratio; with KTGGPIYKR, above 5800 ratio.
As for RDAEFVMCL, the figure is 0.15 ratio.
On to NIVYKKNNR, for which the “relative IC50” value was above 5500 ratio.
As for NMEANDPEK, the figure is above 6000 ratio; as for AIITPVVFY, 0.25 ratio.
